Biological target: SARS-CoV-2 nsp5 (nsp4-5-6 WT) (Severe acute respiratory syndrome coronavirus 2, UniProt P0DTD1)

## Cc1sc2c(c1C)C(c1ccc(Cl)cc1)=N[C@@H](CC(=O)NCCCCCCCCNC(=O)COc1cccc3c1C(=O)N(C1CCC(=O)NC1=O)C3=O)c1nnc(C)n1-2 (some centres unmarked) [Compound #2, dBET6]
  Primary screen nsp5-WT RLU (%): 17.3%
  Secondary screen nsp5-WT RLU (%): 15.2 ± 1.0%
